Target: Nociceptin receptor (Homo sapiens, UniProt P41146)
Settings: hek293

CC(C)[C@H]1CC[C@@H](N2CCC3(CC2)C(=O)N(CCCCCCCCCN(C)C)CN3c2ccccc2)CC1 gave an IC50 of 5.5 nM.

Source: ChEMBL document CHEMBL1759965, “Synthesis and pharmacological evaluation of bivalent antagonists of the nociceptin opioid receptor” (Eur J Med Chem, 2011)
